{"sequences": {"note": "Protein sequences, listed by entry. Tags and fused reporters are not part of them. Lines headed by an entry give the natural chain unless they say otherwise; changes in a name come on top.", "UniProt P42338": "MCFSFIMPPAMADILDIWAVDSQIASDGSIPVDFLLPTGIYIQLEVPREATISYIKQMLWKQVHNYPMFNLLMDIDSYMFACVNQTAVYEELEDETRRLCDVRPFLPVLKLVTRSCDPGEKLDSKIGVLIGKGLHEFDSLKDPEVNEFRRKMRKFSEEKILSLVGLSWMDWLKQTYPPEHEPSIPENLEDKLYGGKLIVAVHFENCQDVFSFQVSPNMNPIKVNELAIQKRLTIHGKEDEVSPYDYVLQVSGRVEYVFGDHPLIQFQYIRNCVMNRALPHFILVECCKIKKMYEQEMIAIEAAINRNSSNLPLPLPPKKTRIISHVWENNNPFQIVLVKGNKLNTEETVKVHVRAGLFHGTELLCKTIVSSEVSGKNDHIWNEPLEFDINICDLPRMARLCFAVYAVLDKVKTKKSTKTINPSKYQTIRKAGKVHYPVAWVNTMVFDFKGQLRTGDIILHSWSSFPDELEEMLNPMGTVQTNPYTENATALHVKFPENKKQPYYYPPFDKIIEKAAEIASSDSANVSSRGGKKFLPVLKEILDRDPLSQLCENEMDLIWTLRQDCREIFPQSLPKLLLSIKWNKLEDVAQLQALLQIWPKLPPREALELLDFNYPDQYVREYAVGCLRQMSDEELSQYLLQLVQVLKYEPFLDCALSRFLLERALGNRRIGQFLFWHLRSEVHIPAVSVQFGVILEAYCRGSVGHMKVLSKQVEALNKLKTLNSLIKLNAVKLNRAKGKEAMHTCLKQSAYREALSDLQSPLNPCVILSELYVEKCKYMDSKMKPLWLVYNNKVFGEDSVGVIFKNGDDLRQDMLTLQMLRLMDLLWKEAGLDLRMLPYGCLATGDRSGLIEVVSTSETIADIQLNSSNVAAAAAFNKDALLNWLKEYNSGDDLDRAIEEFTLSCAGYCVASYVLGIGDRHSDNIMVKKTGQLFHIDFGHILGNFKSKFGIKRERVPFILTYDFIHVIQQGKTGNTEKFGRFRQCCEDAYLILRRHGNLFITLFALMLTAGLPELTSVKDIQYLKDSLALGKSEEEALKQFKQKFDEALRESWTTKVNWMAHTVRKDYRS"}, "source": "the Kinase Knowledgebase extract (Sharma et al. 2016)", "target": "PIK3CB;PIK3CA (UniProt P42338)", "experiment": "PI3-Kinase alpha/beta Inhibition", "data": [{"compound": "O=c1cc(N2CCOCC2)oc2c(-c3ccccc3)cccc12", "values": [{"measurement": "IC50", "value": "1000 to 1500", "unit": "nM"}]}]}
